According to patent US20250214977A1, “STAT6 INHIBITORS AND USES THEREOF” (Kymera Therapeutics, Inc., priority 2024, published 2025):
pIC50: −log10 of the molar value.

By UniProt entry, the sequences of proteins in these tests, tags left out. Residues count along the entry.
UniProt P42226, 123-632 limits assumed: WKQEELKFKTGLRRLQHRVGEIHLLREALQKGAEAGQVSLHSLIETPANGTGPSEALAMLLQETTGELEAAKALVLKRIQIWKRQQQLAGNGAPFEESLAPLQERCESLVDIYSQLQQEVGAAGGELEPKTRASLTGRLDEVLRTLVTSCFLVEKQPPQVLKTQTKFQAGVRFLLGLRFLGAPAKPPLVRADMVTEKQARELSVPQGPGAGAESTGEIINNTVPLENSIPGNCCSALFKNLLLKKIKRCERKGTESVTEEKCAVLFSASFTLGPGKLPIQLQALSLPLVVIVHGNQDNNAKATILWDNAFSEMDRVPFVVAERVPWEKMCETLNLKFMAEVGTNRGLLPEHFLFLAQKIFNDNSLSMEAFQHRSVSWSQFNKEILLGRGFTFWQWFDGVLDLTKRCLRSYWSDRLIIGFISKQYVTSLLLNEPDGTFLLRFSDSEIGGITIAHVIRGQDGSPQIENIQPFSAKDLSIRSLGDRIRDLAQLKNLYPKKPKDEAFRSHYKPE

Experiments:
[1] = target: biotinylated truncated STAT6 (123-632)-avi (Homo sapiens, UniProt P42226); test: Homogenous Time-Resolved Fluorescence (HTRF) binding assay; settings: read-out: STAT6 HTRF: Average IC50; 0.15 nM biotinylated truncated STAT6 (123-632)-avi, 20 nM fluorescein-labeled probe, 30 minutes at room temperature
Experimental: Example 1. Homogenous Time-Resolved Fluorescence (HTRF) Binding Assay
HTRF binding assays were performed using 0.15 nM biotinylated truncated STAT6 (123-632)-avi purified from E. coli, 1× Streptavidin-terbium (CisBio) prepared by mixing SA-Tb in PPI detection buffer (CisBio), 20 nM proprietary fluorescein-labeled probe, and test compounds in assay buffer consisting of 50 mM HEPES-Na pH 7.5, 100 mM NaCl, 1 mM EDTA, 2 mM DTT, 0.1% Tween-20 with a final volume of 20 uL. Compound stocks were dissolved at 10 mM in 100% DMSO and 11 point titration with 3 fold serial dilution was performed in white, opaque 384 well microplates. Reaction plates were incubated at room temperature for 30 minutes. Plates were centrifuged at low rpm for 5 mins, and the ratio of fluorescence intensities were measured at emission wavelengths for fluorescein acceptor (520 nm) and terbium donor (495 nm) on Envision Plate reader. % Inhibition was calculated from the 520/495 ratio generated by using proprietary positive control compound for 100% inhibition and DMSO only reactions for 0% inhibition. Data was processed and dose response curves were generated using GraphPad Prism to determine the concentration required for inhibiting 50% of the HTRF signal (IC50).

[2] = system: Phosphorylation of STAT6 in human PBMC (CD19+ B cells); test: Phosphorylated STAT6 (pSTAT6) flow cytometry assay in human PBMC, IL-4 stimulated; settings: read-out: STAT6 IL4 pSTAT6 assay in PBMC: Average IC50, compound 1 hour, 1 ng/ml IL-4 for 15 minutes
Experimental: Example 2. Phosphorylated STAT6 (pSTAT6) Flow Cytometry Assay in Human PBMC
Phosphorylation of STAT6 in human PBMC was quantitatively measured using flow cytometry technology. Human PBMC were seeded in 96-well plates with a density of 0.3 to 0.5 million cells per well in 100 μl fresh media. Compounds were then added to the assay plates with a final top concentration of up to 30 μM in a 1:3 dilution series with total of 9 doses. The assay plates were incubated for 1 hour at 37° C. under 5% CO2. The cells were then stimulated with 1 ng/ml of IL-4 (R&D Systems, Cat #6507-IL) for 15 minutes, followed by fixation for 30 minutes at 4° C. Cells were spun down at 350 g for 5 minutes. The supernatant was removed and cells were washed once with FACS buffer. Cells were permeabilized with 90% MeOH/H2O for 30 minutes at 4° C., followed by one wash with FACS buffer. Non-specific binding were blocked with human Fc for 1 hour at 4 C, followed by one wash with FACS buffer. AF488 conjugated pSTAT6 antibody (BD Biosciences, Cat #612600, 1:100 dilution) and PE conjugated CD19 antibody (BD Biosciences, Cat #341103, 1:50 dilution) diluted in 100 μl FACS buffer was added to each well with overnight incubation at 4° C. Cells were then washed once with FACS buffer and resuspended in 200 μl of FACS buffer for flow cytometry to quantify pSTAT6 in CD19+ B cells. The data was analyzed by GraphPad Prism and the dose dependent pSTAT6 inhibition was fit using the four-parameter inhibitor vs. response nonlinear regression.

Row | Structure (SMILES) | pIC50 [1] | pIC50 [2]
1 | CN(C)C(=O)c1cc2cc(C3=CCCN(C(=O)CCn4ccnn4)C3)ccn2n1 | 5.00 to 6.00 | 4.00 to 5.00
2 | CN(C)C(=O)c1cc2cc(C3=CCCN(C(=O)[C@H]4Cc5c(cccc5N5CCNCC5)CN4C=O)C3)ccc2o1 (single isomer, unassigned) | 4.00 to 5.00 | < 4.00
3 | CN(C)C(=O)c1cc2ccc(C3=CCCN(C(=O)CCn4cccnc4=O)C3)cc2[nH]1 | 6.00 to 7.00 | 4.00 to 5.00
4 | CN(C)C(=O)c1cc2ccc(C3=CCCN(C(=O)c4cc(-c5ccccc5)n5ccccc45)C3)cc2[nH]1 | 4.00 to 5.00 | < 4.00
5 | CN(C)C(=O)c1cc2ccc(C3=CCCN(C(=O)[C@@H](CO)c4ccccc4)C3)cc2[nH]1 (single isomer, unassigned) | 4.00 to 5.00 | < 4.00
6 | CN(C)C(=O)c1cc2ccc(C3=CCCN(C(=O)Cn4ncccc4=O)C3)cc2[nH]1 | 4.00 to 5.00 | < 4.00
7 | CN(C)C(=O)c1cc2ccc(C3=CCCN(C(=O)C4Cc5ccccc5CN4C)C3)cc2[nH]1 (centres unmarked) | 4.00 to 5.00 | < 4.00
8 | CN(C)C(=O)c1cc2cc(C3CC[C@H](CO)N(C(=O)CCn4ccnn4)C3)ccc2o1 (some centres unmarked) | < 4.00 | < 4.00
9 | Cc1ccc(S(=O)(=O)N[C@@H](C)C(=O)N2CCC=C(c3ccc4cc(C(=O)N(C)C)[nH]c4c3)C2)cc1 | 4.00 to 5.00 | < 4.00
10 | CN(C)C(=O)c1cc2ccc(C3=CCCN(C(=O)[C@@H]4CC[C@H](C(=O)O)C4)C3)cc2[nH]1 | 4.00 to 5.00 | 4.00 to 5.00
11 | CN(C)C(=O)c1cc2cc(C3CC[C@@H](CO)N(C(=O)CCn4ccnn4)C3)ccc2o1 (some centres unmarked) | < 4.00 | < 4.00
12 | CN(C)C(=O)c1cc2cc(C3CCN(C(=O)CCn4ccnn4)CC3)ccc2o1 | 4.00 to 5.00 | < 4.00
13 | CN(C)C(=O)c1cc2ccc(C3=CCCN(C(=O)C45CC(C4)C5)C3)cc2[nH]1 | 4.00 to 5.00 | < 4.00
14 | CN(C)C(=O)c1cc2cc(C3=CCCN(C(=O)Cc4ccc5c(c4)CNCC5)C3)ccc2o1 | 4.00 to 5.00 | < 4.00
15 | CCC12CC(C(=O)N3CCC=C(c4ccc5cc(C(=O)N(C)C)[nH]c5c4)C3)(C1)C2 | 4.00 to 5.00 | < 4.00
16 | CO[C@H](C(=O)N1CCC=C(c2ccc3cc(C(=O)N(C)C)[nH]c3c2)C1)c1ccccc1 (single isomer, unassigned) | 4.00 to 5.00 | < 4.00
